From paper PMC5906549, “Cathelicidin-Derived Antimicrobial Peptides Inhibit Zika Virus Through Direct Inactivation and Interferon Pathway” (Frontiers in Immunology, 2018)

System: ZIKV strain MR766
Test: ZIKV RNA in astrocytes with recombinant IFN-α or with inhibition of type-I IFN signaling
Assay type: cell-based, Zika virus
Settings: human astrocytes; recombinant IFN-α2 at 1000 units/mL before ZIKV MOI 0.5; RNA at 24 h after infection
Protocol: Total mRNA was isolated with TRIzol Reagent (Thermo Fisher Scientific) and RNeasy Mini Kit (QIAGEN Inc., Valencia, CA, USA) following the manufacturer’s recommendations. Two real-time RT-PCR methods were used for the current studies. First, SYBR Green-based RT-PCR assay was used to determine intracellular ZIKV RNA in Vero cells. For this assay, reverse transcription was performed using Verso cDNA synthesis Kit (Thermo Fisher Scientific) and 1 µg of total RNA in a 15-µL final volume. The RT-PCR analyses were performed using 7.5-µL SYBR Green PCR Master Mix (Thermo Fisher Scientific) with 0.5-µL cDNA, 1.5-µL H2O, 5.5-µL oligonucleotide primer pairs at 10 µM. […] GG-3. PCR program: 1, 50°C for 2 min; 2, 95°C for 2 min; 3, 95°C for 15 s; 4, specific annealing temperature for 15 s; 5, 72°C for 1 min. Steps 2–4 were repeated 40 times. All samples were amplified in triplicate for analysis. Relative ZIKV RNA levels were determined and standardized with a GAPDH internal control using comparative ΔΔCT method ([35]). […] Relative ZIKV mRNA levels were determined and standardized with a GAPDH or 18-s rRNA endogenous control using comparative ΔΔCT method ([35]). […] Quantitative genomic RNA from ZIKV (NR-1838DQ, ATCC) was used as a standard to calculate viral copies.

IFN-α: recombinant human IFN-α, tested for ZIKV inhibition at 1000 units/mL
ZIKV infection (ZIKV RNA) after IFN-α treatment: significantly inhibited ZIKV infection
